The target in one assay is T1, rat P2X7 (Rattus norvegicus, UniProt Q64663).
T1 sequence (Q64663 1-595): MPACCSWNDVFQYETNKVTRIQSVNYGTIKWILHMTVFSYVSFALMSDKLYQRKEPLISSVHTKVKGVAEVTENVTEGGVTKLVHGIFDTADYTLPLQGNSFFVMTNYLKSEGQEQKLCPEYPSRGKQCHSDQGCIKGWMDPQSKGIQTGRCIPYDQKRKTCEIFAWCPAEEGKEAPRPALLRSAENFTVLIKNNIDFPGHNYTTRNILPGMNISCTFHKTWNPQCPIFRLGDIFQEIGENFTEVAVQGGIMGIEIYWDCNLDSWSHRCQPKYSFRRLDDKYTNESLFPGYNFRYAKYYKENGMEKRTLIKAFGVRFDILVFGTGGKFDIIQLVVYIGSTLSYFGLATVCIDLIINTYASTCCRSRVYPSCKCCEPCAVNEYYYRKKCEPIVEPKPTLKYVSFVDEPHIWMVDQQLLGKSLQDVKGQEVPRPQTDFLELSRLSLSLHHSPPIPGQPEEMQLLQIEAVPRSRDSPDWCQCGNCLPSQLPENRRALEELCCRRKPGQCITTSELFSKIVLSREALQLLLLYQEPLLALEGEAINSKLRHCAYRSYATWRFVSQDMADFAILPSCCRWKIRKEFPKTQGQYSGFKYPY
Description: Ca2+ flux (FLIPR) in 1321N1 cells expressing recombinant rat P2X7 channel. Conditions: FLIPR (rat) IC50 (μM), 250 μM BzATP. A general note: Calcium flux is commonly read through the fluorescence of an indicator in the cells.

Sequences of proteins named here, by UniProt entry; tags and fusion partners are left off. A change or cut given only in a name is not applied to a line headed by its entry.
UniProt Q99572: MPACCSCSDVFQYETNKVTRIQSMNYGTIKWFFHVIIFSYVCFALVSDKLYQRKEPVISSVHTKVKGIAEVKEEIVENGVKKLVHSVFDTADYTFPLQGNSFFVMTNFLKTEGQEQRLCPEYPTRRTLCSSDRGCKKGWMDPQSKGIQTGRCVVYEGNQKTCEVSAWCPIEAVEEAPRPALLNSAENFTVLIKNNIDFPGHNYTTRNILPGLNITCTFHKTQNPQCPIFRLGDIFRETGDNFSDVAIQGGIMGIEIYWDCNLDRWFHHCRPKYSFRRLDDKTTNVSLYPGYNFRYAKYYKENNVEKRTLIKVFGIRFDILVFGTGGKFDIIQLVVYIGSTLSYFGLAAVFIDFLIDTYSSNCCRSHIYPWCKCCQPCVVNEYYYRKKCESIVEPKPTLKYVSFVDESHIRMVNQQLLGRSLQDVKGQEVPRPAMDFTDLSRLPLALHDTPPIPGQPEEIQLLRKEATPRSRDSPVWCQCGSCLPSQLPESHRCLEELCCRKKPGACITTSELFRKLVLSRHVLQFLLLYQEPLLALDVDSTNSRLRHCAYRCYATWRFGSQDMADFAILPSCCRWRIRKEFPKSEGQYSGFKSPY

For another assay, the target named is P2X7 (Homo sapiens, UniProt Q99572). In words: Ca2+ flux (FLIPR) in 1321N1 cells expressing recombinant human P2X7 channel. To be noted: FLIPR (human) IC50 (μM), 250 μM BzATP.

Regarding `CC1c2nnc(-c3ccc(F)cc3)n2CCN1C(=O)c1cccc(C(F)(F)F)c1Cl` (centres unmarked), the concentration for half-maximal inhibition (IC50) at rat P2X7 stood at 7.89 µM.

Regarding `C[C@H]1Cn2c(nnc2-c2ncc(F)cn2)CN1C(=O)c1cccc(C(F)(F)F)c1Cl` [Example 74], the half-maximal inhibitory concentration (IC50) at P2X7 is 0.0049 µM.

A word on the IC50: it is the point on the concentration scale where inhibition reaches its midpoint.

Values taken from patent US12338243B2, “P2X7 modulators” (JANSSEN PHARMACEUTICA NV, priority 2014, dated 2025).
